Chains of the proteins cited; added tags and fusions are not shown.
UniProt Q02108, whole entry: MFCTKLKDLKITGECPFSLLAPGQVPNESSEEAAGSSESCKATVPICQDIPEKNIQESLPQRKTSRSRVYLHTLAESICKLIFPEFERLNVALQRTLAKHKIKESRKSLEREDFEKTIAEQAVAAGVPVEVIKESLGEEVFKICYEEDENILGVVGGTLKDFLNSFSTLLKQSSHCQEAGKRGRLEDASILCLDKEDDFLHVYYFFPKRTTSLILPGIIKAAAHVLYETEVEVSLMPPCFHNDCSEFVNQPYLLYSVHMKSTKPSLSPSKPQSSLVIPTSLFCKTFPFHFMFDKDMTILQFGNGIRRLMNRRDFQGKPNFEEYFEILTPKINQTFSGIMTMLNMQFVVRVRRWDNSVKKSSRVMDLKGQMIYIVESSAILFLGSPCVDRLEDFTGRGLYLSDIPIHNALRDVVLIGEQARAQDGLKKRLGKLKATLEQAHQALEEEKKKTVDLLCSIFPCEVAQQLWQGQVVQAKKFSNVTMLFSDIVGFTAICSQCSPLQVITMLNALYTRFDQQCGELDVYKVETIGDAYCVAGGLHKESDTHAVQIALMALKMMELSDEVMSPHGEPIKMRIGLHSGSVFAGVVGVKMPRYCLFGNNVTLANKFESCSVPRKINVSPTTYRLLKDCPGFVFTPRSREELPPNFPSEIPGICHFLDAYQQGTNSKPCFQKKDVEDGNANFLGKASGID
UniProt Q02153, whole entry: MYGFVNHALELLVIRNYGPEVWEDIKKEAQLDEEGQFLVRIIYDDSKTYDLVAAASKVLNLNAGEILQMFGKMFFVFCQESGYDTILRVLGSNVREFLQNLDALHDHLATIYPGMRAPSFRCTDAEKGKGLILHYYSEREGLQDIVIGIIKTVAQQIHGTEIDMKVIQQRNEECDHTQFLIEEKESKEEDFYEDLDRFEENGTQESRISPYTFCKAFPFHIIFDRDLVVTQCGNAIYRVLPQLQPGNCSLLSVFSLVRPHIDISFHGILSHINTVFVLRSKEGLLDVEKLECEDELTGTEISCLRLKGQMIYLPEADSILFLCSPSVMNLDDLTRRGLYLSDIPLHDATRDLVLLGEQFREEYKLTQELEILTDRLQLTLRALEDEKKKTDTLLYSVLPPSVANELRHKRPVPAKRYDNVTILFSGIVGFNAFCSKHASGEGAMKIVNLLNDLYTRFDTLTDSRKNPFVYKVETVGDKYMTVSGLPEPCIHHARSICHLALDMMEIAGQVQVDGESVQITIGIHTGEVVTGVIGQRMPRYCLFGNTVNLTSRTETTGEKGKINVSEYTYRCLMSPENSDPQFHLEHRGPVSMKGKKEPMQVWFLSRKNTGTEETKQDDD

In patent EP4786461A1, “PYRAZOLE CARBOXYLIC ACID DERIVATIVE AND USE THEREOF IN MEDICINE” (Haisco Pharmaceutical Group Co., Ltd., priority 2023, dated 2025):

Target: soluble guanylate cyclase (sGC) (Homo sapiens, UniProt Q02108+Q02153)
Test: In vitro detection experiment for soluble guanylate cyclase (sGC) activity (TR-FRET cGMP)
Conditions: enzymatic agonism and/or activation of sGC; 1.5 nM sGC, 5 µM GTP, 100 µM DETA NONOate; tested form: free form

EC50: < 20 nM
SMILES: CC(C)CN1C2CCC1CN(c1ccc(-c3ccc(Cl)cc3N3CCCC(n4ncc(C(=O)O)c4C(F)F)C3)cc1)C2 (single isomer, unassigned)
